This note sets out measurements from ChEMBL document CHEMBL5579853, “Recent progress in the development of hypoxia-inducible factor 2α (HIF-2α) modulators: Inhibitors, agonists, and degraders (2009-2024)” (Eur J Med Chem, 2024).

Protein sequences, listed by entry. Tags and fused reporters are not part of them. Lines headed by an entry give the natural chain unless they say otherwise; changes in a name come on top.
UniProt Q99814: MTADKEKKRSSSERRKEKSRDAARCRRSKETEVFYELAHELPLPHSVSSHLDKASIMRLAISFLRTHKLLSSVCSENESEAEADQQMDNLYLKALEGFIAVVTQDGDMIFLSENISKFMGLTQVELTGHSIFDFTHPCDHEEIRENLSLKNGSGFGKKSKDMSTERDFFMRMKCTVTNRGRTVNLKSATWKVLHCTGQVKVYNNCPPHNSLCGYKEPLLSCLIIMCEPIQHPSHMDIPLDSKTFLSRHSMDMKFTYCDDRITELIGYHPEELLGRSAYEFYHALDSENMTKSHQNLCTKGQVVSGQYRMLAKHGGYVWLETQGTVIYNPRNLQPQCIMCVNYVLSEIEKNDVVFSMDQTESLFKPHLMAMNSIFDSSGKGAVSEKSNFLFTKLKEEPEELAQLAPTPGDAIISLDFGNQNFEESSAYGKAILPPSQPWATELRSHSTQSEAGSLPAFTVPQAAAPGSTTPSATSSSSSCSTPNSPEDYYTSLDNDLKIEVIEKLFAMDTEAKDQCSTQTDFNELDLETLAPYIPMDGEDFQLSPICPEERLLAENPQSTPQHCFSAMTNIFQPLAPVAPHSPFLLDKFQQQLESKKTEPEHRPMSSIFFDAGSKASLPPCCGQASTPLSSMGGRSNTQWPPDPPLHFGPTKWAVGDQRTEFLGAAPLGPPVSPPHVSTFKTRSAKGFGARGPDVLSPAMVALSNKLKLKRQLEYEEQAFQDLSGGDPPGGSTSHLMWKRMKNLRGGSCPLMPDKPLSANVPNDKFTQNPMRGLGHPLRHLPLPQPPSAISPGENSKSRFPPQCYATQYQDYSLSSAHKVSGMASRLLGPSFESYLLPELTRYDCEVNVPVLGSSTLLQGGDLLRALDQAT
UniProt Q96SW2: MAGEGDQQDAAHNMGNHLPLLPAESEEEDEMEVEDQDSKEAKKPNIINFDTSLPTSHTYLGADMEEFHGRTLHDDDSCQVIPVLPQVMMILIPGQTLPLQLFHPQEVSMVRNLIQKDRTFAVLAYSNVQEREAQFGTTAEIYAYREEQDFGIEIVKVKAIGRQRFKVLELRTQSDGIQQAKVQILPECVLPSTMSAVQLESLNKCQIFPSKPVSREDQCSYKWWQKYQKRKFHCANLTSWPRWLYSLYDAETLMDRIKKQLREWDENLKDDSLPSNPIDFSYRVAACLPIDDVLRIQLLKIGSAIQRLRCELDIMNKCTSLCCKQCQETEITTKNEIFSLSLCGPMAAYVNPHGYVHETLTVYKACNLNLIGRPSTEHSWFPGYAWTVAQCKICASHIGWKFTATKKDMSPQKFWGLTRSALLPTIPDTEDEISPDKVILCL

The target in the assay is Protein cereblon/Endothelial PAS domain-containing protein 1 (Homo sapiens) (UniProt Q99814+Q96SW2). Description: PROTAC activity at CRBN/HIF-2alpha (unknown origin) at 1 uM relative to control. It counts as protein assay.

On to `CS(=O)(=O)c1ccc(Oc2cc(C#N)cc(OCCOCCOCCn3cc(CNc4cccc5c4C(=O)N(C4CCC(=O)NC4=O)C5=O)nn3)c2)c2c1[C@H](O)[C@H](F)C2` (some centres not stated), for which the Emax was determined as 54%.
In the case of `CS(=O)(=O)c1ccc(OCCOCCOCCn2cc(CNc3cccc4c3C(=O)N(C3CCC(=O)NC3=O)C4=O)nn2)c2c1[C@H](O)[C@H](F)C2` (some centres not stated), the Emax was 51%.
